Measurements published in article PMC5028280 (Neuropharmacology, 2016).

System: male ICR mice
Experiment: FOB, cannabinoid receptor antagonism of 3 mg/kg JWH-018 effects
Assay type: in vivo, mouse
Conditions: 3 mg/kg JWH-018 i.v. alone, or co-administration of 3 mg/kg rimonabant i.p.

For `Cc1c(C(=O)NN2CCCCC2)nn(-c2ccc(Cl)cc2Cl)c1-c1ccc(Cl)cc1` [rimonabant], the “Muscle tone in FOB antagonism study” value was “completely reversed”.
